The experiment concerns the target T1, Diacylglycerol O-acyltransferase 1 (Homo sapiens, UniProt O75907).
T1 sequence (O75907 whole entry): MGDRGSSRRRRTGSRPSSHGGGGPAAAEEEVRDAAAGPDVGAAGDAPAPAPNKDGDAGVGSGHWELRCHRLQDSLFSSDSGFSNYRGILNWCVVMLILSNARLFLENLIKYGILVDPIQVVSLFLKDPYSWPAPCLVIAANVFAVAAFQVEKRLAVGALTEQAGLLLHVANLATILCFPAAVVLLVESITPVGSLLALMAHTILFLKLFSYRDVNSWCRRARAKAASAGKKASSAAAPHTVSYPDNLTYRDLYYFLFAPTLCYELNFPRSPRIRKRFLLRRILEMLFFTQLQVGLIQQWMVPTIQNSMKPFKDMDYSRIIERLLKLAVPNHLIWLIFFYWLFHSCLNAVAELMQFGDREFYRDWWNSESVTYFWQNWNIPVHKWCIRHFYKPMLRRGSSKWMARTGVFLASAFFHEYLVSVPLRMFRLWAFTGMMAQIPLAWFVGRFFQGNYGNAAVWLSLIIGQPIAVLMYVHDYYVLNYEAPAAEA
The experiment is described as follows: Inhibition of human DGAT1.

This note sets out measurements from ChEMBL document CHEMBL2407079, “Potent DGAT1 Inhibitors in the Benzimidazole Class with a Pyridyl-oxy-cyclohexanecarboxylic Acid Moiety” (ACS Med Chem Lett, 2013).

The IC50 is the midpoint of a concentration-inhibition curve.

On to `Cc1ccc2[nH]c(-c3ccc(-c4ccc(O[C@H]5CC[C@@H](C(=O)O)CC5)nc4)nc3)nc2n1`, for which the IC50 turned out to be 0.032 µM.

`Cc1ccc2[nH]c(-c3ccc(-c4ccc(O[C@H]5CC[C@H](C(=O)O)CC5)nc4)nc3)nc2n1` came in with an IC50 of 0.054 µM.
